Data published in patent US20180338955A1, “METHODS FOR REGULATION AND TREATMENT OF GLIOMA CELL MIGRATION AND GLIOBLASTOMA” (priority 2015, published 2018).

By UniProt entry, the sequences of proteins in these tests, tags left out.
UniProt P06239, whole entry, species assumed: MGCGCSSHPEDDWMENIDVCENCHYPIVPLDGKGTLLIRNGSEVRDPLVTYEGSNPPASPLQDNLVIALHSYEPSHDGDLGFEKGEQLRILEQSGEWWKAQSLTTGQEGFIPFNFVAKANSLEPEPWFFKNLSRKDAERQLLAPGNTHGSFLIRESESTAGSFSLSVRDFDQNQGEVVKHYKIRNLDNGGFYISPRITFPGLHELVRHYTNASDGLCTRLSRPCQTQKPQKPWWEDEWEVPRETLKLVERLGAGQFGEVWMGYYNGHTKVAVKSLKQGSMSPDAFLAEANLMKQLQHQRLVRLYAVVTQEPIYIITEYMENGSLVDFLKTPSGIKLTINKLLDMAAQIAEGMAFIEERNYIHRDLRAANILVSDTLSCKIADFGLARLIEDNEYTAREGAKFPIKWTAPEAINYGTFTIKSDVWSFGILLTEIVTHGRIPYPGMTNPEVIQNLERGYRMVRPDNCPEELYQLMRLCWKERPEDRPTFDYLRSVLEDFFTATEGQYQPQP

Tests used:
Lck = Lck (Homo sapiens, UniProt P06239); settings: cited from earlier work
human GSCs = test: xCELLigence impedance assay of cell spreading/migration; assay type: cell-based; settings: 500 nM, after 10 hours, versus DMSO
Procedure: The xCELLigence system was used to perform cell migration assays on the RTCA DP instrument. Electrical impedance due to cell migration is represented as cell index. GBM cells were seeded on fibronectin coated wells of the RTCA CIM-plate 16 (ACEA Biosciences) and allowed to attach and spread for 1 hour at room temperature. After 1 hour, wells were treated with DMSO vehicle or 500 nM Lck inhibitor. As cells migrated towards the lower chamber containing 10% FBS with DMSO vehicle or 500 nM Lck inhbitor, measurements were captured every 5 minutes. Cell index data was plotted overtime and the slope between 2 and 6 hours was calculated.

In the case of `COc1cc(-c2nn([C@H]3CC[C@H](N4CCN(C(C)=O)CC4)CC3)c3ncnc(N)c23)ccc1NC(=O)c1cc2ccccc2n1C` [Lck-I, A770041], the “concentration at which the inhibitor specifically binds to the Lck active site” value (Lck) is given as “nanomolar concentrations” and the cell index (human GSCs) is given as “significantly decreased”.
